AlphaSeq binding of Ab-14 light chain variants to a spike HR2 peptide

Source: Li et al. 2023 (doi:10.1038/s41467-023-39022-2), MIT Lincoln Laboratory and A-Alpha Bio; data file from the FLAb repository.

Binding partner: SARS-CoV-2 spike HR2 peptide, sequence PDVDLGDISGINAS.

Each scFv is VH, three GGGGS repeats, VL, as in the parent Ab-14, and differs from it in the CDRs of the light chain only.
VH: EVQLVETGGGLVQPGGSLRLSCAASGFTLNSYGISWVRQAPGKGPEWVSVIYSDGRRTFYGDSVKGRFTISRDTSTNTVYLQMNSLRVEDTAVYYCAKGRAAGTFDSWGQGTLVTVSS
VL: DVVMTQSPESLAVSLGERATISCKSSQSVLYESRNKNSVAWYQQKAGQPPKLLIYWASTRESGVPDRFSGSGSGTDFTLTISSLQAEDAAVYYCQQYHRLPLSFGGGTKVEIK

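The starting antibody came from a phage panning campaign against this peptide. These sequences belong to a second round, designed from the earlier measurements on random variants of the parent. Their group label is 14L_GP_Gibbs (GP: Gaussian process model; Gibbs: Gibbs sampling; a sequence that several methods proposed may carry one label only). The scFvs were displayed on barcoded MATa yeast, the peptide on MATalpha yeast. Binding brings cells together so that they mate, and sequencing counts the barcode pairs among the diploids. Each replicate has its own calibration line, from reference interactions of the BCL2 family. There are six technical replicates.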

Positions count from residue 1 of the parent VL; Q27I puts I in place of Q.
Affinities are written as log10 Kd with Kd in nM; a lower number is a better binder.
A pair that was not seen in that replicate is written "nd"; this usually means weak binding, but a binder can also be missed.
A sequence measured in both rounds can read differently, since the two assays cover different ranges.
The authors averaged sequences with at least three values out of six and counted those with two or fewer as poor binders.
The parent sequence was in this pool as ten entries: three were never detected, three once, and four in most replicates, with averages from 0.34 to 2.37.
Three control strains display no target. For all light chain designs, 4% of the pairings with them gave a signal, with a median of 2.64 and one signal in twenty below 1.59, so weak values seen in few replicates may be background. Also given: how often the same scFv was detected with the empty control strains, with their mean in brackets.

| changes | log10 Kd (nM) by replicate | empty controls |
|---|---|---|
| Q27I+V29Y+L30D+S33D+K36Q+W56S+T59Q+S62H | 0.27 / 0.68 / 0.00 / -0.12 / -0.21 / 0.00 | 1/18 (2.14) |
| S25Q+V29E+L30P+Y31G+K36M+W56H+T59Q | -0.12 / 0.24 / 0.33 / 0.42 / 0.51 / 0.59 | 0/18 |
| S25L+S26Q+Q27A+V29Q+L30E+E32W+W56Q | -0.14 / -0.31 / -0.32 / -0.49 / -0.38 / -0.29 | 0/18 |
| S25L+S26E+S28L+L30D+E32K+S33D+K36L+W56N | 0.26 / 0.14 / -0.05 / 0.03 / -0.03 / 0.37 | 1/18 (1.86) |
| S25Q+V29Q+L30G+Y31G+E32W+S33Q+W56E+S62M | 0.40 / -0.14 / -0.05 / 0.19 / 0.09 / 0.55 | 0/18 |
| S25Q+V29F+K36S+W56D+T59Q+S62Q+S103M | -0.21 / -0.19 / -0.33 / -0.53 / -0.16 / -0.13 | 0/18 |
| S25V+S26Q+Q27I+V29W+Y31M+E32S+S38Q+W56H+T59M | 1.12 / 0.46 / 0.59 / 0.62 / 0.67 / 0.80 | 0/18 |
| S25V+Q27P+V29M+L30W+S38N+W56H+S103H | 1.87 / 1.96 / 1.37 / 1.13 / 1.85 / 1.37 | 1/18 (1.92) |
| S25G+S26P+S28W+V29Q+S38N+W56N+S62M | 0.11 / -0.01 / 0.24 / -0.22 / 0.27 / 0.03 | 0/18 |
| S25M+Q27E+V29E+R34Q+K36S+S38N+W56H+T59Q+E61M | 0.22 / 0.18 / 0.43 / 0.20 / 0.20 / 0.42 | 0/18 |
| S25F+S26E+S28L+V29H+L30D+S38A+W56N+A57G | 0.41 / 0.11 / -0.15 / 0.02 / 0.03 / -0.01 | 0/18 |
| S26Q+Q27I+V29E+L30G+S33Q+W56E+E61C+S62D | -0.34 / -0.27 / -0.66 / -0.66 / -0.54 / -0.36 | 1/18 (2.03) |
| S25W+S28G+L30M+Y31G+W56D | 0.38 / 0.36 / 0.45 / 0.10 / 0.37 / 0.31 | 2/18 (3.06) |
| S25L+V29W+E32L+K36M+S38A+W56E+T59Q+E61L+Q96D | 0.71 / 0.21 / 0.50 / 0.32 / 0.76 / 0.60 | 0/18 |
| S25L+S26Q+V29F+S33E+K36S+S38A+W56N+T59L+S62L | 0.13 / -0.14 / -0.06 / -0.41 / -0.12 / -0.08 | 2/18 (2.26) |
| S25V+S28M+L30P+S33E+S38N+W56M+E61M | 0.03 / 0.02 / -0.11 / -0.30 / -0.19 / -0.07 | 1/18 (3.86) |
| S25V+Q27P+V29Q+E32W+K36F+S38A+W56Q+S62T | 0.68 / 0.66 / 1.03 / 0.70 / 0.99 / 0.81 | 0/18 |
| S26Q+L30P+W56N+T59L+E61C | 1.69 / 1.10 / nd / 3.91 / 1.49 / 2.91 | 0/18 |
| S25L+V29M+S38N+W56S+T59H+S62H | 0.53 / 0.25 / 0.32 / 0.20 / 0.78 / 0.48 | 0/18 |
| S25L+S26Q+V29H+E32G+N35M+W56H+T59Q+Q96C | 1.82 / 1.18 / 1.51 / 1.53 / 1.65 / 1.66 | 2/18 (2.71) |
| S25M+S26Q+Q27G+L30M+Y31M+E32Q+K36D+W56D+S62E | 0.05 / 0.00 / -0.01 / -0.30 / -0.06 / -0.05 | 0/18 |
| S25W+Q27M+S28G+L30M+Y31G+K36F+W56N | 0.08 / -0.32 / -0.30 / -0.27 / -0.21 / -0.02 | 0/18 |
| S25L+S26D+Q27M+S28W+V29E+L30P+E32G+W56S+E61C | 0.34 / 0.42 / -0.02 / 0.33 / 0.41 / 0.65 | 1/18 (3.69) |
| S25L+S26M+Q27P+V29W+L30E+W56E+T59V+S62E | 1.64 / 1.30 / 1.29 / 1.54 / 1.23 / 1.15 | 0/18 |
| K24I+S25I+S28W+V29K+Y31G+S33W+W56D+T59Q | 0.46 / -0.01 / 0.28 / 0.10 / 0.09 / 0.52 | 0/18 |
| S25V+S28Q+V29G+E32G+S33Q+K36A+W56N+S62D | 0.54 / 0.50 / 0.31 / 0.39 / 0.59 / 0.31 | 0/18 |
| S25H+L30E+S33A+N35D+W56M+E61M | 0.66 / 1.24 / 0.79 / 0.20 / 0.48 / 1.68 | 0/18 |
| Q27M+V29Q+L30E+K36S+W56H+S62D+S103I | 0.36 / 0.14 / 0.29 / 0.32 / 0.28 / 0.46 | 3/18 (2.57) |
| S25L+Q27M+S28L+V29G+E32G+S33Q+W56E+S62D | -0.12 / -0.33 / -0.23 / -0.42 / -0.40 / -0.06 | 1/18 (2.14) |
| S25L+S28M+V29M+K36A+W56N+S62E | -0.31 / -0.47 / -0.51 / -0.67 / -0.53 / -0.46 | 2/18 (3.61) |
| S25W+S26D+S28E+L30D+Y31G+E32Q+W56Q+T59Q+S62W | 0.68 / 0.49 / 0.73 / 0.71 / 0.37 / 0.75 | 0/18 |
| S25L+V29Q+L30W+K36S+W56N+T59N+E61L | -0.11 / -0.12 / -0.01 / -0.26 / -0.35 / -0.28 | 0/18 |
| S25V+S26D+S28E+L30G+Y31G+E32L+K36A+S38A+W56A | -0.02 / 0.12 / -0.35 / -0.32 / -0.31 / -0.25 | 0/18 |
| S25W+S26Q+V29Q+L30D+K36F+W56N+E61C+S62T | 0.30 / 0.30 / -0.23 / -0.23 / 0.23 / 0.06 | 1/18 (2.81) |
| S25L+S26Q+V29C+K36P+W56N+T59Y+E61Y | 0.21 / 0.47 / 0.27 / 0.47 / -0.02 / 0.44 | 1/18 (2.75) |
| S25L+S28Q+V29N+N35M+W56M+T59Q | nd / nd / nd / nd / nd / nd | 0/18 |
| S25I+S28W+V29K+Y31G+S33W+W56D+T59Q | 0.05 / 0.07 / -0.26 / -0.15 / -0.14 / 0.01 | 2/18 (2.80) |

Extract of 3 entries:

changes	log10 Kd (nM) by replicate	empty controls
S25H+L30E+S33A+N35D+W56M+E61M	0.66 / 1.24 / 0.79 / 0.20 / 0.48 / 1.68	0/18
S25V+S28M+L30P+S33E+S38N+W56M+E61M	0.03 / 0.02 / -0.11 / -0.30 / -0.19 / -0.07	1/18 (3.86)
S25Q+V29Q+L30G+Y31G+E32W+S33Q+W56E+S62M	0.40 / -0.14 / -0.05 / 0.19 / 0.09 / 0.55	0/18